Assay: Binding affinity against [3H]8-OH-DPAT-labeled 5-hydroxytryptamine 1A receptor sites in bovine hippocampus

With `CCCN1CCC2c3c(O)cccc3CC[C@@H]21` (some centres not stated) [3-Propyl-2,3,3a,4,5,9b-hexahydro-1H-benzo[e]indol-9-ol] the Ki was 3 nM.

For `CCCN1CCC2c3c(O)cccc3CCC21` (racemic) [3-Propyl-2,3,3a,4,5,9b-hexahydro-1H-benzo[e]indol-9-ol], the Ki was 1.4 nM.
